# Values of other authors in patent US8129349B2, “Treatment of disease by inducing cell apoptosis” (The Regents of the University of California, priority 2000, dated 2012).
# Molecular target: T1, procaspase 1 (Homo sapiens, UniProt P29466)
# T1 sequence (P29466 1-404): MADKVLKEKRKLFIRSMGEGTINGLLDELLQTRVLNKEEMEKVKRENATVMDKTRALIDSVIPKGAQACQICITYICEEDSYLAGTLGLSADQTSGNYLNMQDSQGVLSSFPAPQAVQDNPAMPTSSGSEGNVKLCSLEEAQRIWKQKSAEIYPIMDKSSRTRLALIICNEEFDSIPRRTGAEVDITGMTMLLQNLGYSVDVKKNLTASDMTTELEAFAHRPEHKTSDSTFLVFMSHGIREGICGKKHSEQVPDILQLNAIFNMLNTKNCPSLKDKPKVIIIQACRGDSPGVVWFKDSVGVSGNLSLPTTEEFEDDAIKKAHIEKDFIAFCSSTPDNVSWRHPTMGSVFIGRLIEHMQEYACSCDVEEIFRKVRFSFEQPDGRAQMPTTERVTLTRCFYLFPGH
# Details: cited from earlier work
substance,measurement,value
DEVD-CHO,Ki,0.017 µM
